Target: human PDE1B (Homo sapiens (Human), UniProt Q01064)
Assay: PDE1B inhibitory assay (IMAP TR-FRET)
Conditions: negative log of half-maximal molar inhibitory concentration; 200 nM FAM-cAMP, Calmodulin, CaCl2

The chains behind the UniProt entries cited, without tags or fusion partners.
UniProt Q01064, whole entry: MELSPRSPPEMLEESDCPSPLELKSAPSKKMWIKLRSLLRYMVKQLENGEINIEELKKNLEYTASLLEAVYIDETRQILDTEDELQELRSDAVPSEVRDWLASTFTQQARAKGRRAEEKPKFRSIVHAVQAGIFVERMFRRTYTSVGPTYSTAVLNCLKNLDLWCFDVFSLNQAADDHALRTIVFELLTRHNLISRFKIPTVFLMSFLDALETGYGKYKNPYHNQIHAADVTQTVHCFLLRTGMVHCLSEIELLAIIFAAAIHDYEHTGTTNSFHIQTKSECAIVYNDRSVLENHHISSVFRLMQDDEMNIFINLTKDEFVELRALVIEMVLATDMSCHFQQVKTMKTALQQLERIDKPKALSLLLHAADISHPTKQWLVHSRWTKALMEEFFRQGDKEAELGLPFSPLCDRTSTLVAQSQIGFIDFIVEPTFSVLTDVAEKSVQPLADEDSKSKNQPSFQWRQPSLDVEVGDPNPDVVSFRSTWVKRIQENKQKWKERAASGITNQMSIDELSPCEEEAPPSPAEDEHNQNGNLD

Structure (SMILES)	PDE1B pIC50
COc1ccc(Cn2c(=O)n3ncnc3c3cc(CN4CCOCC4(C)C)cnc32)cc1	6-7
O=C(C1CCOC1)N1CCc2c(sc3c2c2ncnn2c(=O)n3Cc2ccc(Cl)cc2F)C1 (centres unmarked)	>7

Reference: patent US10105367B2, “Therapeutic thiophene-, furan-, and pyridine-fused azolopyrimidin-5-(6h)-ones” (Dart Neuroscience (Cayman) Ltd., priority 2012, dated 2018)
